3 compounds from ChEMBL document CHEMBL5046242, “Investigation of Janus Kinase (JAK) Inhibitors for Lung Delivery and the Importance of Aldehyde Oxidase Metabolism” (J Med Chem, 2022) can be followed below.

Protein sequences, listed by entry. Tags and fused reporters are not part of them. Lines headed by an entry give the natural chain unless they say otherwise; changes in a name come on top.
UniProt P29597: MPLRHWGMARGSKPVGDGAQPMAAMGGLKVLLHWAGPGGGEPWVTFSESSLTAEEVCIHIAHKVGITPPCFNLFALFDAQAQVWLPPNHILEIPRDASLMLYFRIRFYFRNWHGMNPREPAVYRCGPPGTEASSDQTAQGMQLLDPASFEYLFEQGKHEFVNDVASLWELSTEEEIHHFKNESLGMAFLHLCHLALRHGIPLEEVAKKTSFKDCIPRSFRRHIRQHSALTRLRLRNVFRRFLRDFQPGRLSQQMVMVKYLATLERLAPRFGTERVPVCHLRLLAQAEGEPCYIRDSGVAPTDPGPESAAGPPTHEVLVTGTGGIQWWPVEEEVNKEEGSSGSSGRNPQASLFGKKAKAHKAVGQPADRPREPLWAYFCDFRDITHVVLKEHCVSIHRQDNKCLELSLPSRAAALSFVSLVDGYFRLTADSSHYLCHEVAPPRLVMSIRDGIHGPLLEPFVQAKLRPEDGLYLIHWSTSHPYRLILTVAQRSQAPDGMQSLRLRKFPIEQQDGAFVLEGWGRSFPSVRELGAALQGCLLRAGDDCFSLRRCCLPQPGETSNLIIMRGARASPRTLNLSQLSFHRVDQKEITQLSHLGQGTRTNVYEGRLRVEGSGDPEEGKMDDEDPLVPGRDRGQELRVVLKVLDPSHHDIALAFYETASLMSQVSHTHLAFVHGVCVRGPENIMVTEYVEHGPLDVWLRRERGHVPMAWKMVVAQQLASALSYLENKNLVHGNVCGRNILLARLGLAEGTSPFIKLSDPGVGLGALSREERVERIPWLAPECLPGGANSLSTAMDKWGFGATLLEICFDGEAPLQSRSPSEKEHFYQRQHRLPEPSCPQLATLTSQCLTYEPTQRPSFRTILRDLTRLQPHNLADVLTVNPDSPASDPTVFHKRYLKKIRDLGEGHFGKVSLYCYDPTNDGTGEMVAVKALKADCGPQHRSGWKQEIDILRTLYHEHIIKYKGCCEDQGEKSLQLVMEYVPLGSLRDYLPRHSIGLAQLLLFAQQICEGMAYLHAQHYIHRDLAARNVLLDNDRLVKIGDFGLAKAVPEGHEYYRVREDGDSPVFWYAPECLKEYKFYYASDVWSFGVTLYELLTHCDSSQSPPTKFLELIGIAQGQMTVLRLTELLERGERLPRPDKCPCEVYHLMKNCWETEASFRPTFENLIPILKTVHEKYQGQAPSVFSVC
UniProt P35968, whole entry: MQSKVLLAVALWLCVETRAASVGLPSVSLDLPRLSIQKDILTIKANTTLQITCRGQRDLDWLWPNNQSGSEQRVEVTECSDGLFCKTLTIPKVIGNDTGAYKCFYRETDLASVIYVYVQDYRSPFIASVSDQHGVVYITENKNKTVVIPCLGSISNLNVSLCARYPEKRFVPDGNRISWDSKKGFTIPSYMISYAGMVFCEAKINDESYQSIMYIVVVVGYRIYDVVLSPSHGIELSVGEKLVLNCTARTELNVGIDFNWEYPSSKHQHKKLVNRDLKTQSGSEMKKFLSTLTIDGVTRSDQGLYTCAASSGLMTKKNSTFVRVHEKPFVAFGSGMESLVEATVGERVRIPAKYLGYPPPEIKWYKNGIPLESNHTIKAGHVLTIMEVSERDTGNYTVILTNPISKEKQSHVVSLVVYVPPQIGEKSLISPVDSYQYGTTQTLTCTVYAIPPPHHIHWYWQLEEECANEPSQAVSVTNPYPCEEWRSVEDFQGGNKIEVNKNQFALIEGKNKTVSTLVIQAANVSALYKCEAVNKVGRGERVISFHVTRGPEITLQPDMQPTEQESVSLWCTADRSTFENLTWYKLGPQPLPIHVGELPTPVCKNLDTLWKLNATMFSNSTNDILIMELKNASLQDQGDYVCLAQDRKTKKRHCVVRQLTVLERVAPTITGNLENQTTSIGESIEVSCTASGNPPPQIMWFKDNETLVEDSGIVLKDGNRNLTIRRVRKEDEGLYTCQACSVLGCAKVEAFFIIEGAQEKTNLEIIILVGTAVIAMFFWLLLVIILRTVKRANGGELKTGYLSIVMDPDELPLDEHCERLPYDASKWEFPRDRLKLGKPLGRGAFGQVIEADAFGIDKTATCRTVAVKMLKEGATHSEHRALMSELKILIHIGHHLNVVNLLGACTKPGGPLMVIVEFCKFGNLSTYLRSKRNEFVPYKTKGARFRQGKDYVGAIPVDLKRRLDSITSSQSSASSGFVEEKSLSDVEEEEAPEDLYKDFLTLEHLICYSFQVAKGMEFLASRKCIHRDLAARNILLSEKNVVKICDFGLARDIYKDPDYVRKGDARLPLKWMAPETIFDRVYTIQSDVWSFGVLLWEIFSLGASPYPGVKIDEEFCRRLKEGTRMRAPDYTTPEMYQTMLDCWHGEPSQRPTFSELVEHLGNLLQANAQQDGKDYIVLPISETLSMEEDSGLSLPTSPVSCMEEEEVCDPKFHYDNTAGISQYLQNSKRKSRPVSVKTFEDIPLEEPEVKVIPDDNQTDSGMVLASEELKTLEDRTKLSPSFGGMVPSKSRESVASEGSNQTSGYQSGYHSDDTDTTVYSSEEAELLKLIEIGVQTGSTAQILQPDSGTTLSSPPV

Test [1] addresses Non-receptor tyrosine-protein kinase TYK2 (Homo sapiens, UniProt P29597). Type of test: cell-based.
The target in test [2] is Vascular endothelial growth factor receptor 2 (Homo sapiens, UniProt P35968).

For the compound `CC(=O)N1CCC(Nc2cccc3cnc(Nc4cnn(C)c4)nc23)CC1`, half-maximal inhibition in test [1] (IC50) was put at 100 nM. `CCc1cc(O)c(F)cc1-c1cc(NCCO)c2nc(N)ncc2c1`: the midpoint of inhibition in test [2], the IC50, lay at 1580 nM. On the same count and under the same terms, the same measure for `CCc1cc(O)c(F)cc1-c1cc(NCCNC)c2nc(N)ncc2c1`: 2510 nM.
